Test results published in patent US4757082A, “Method of inhibiting aromatase” (Eli Lilly and Company, priority 1984, dated 1988).
Where a name gives a salt, the structure may show the parent alone.

Molecular target: T1, aromatase (Rattus norvegicus, UniProt P22443)
T1 construct: ovarian microsomes are obtained from rats treated with pregnant mares serum gonadotropin; from tissue; host or cells: ovarian microsomes from rats treated with pregnant mares serum gonadotropin
T1 sequence (P22443 1-508): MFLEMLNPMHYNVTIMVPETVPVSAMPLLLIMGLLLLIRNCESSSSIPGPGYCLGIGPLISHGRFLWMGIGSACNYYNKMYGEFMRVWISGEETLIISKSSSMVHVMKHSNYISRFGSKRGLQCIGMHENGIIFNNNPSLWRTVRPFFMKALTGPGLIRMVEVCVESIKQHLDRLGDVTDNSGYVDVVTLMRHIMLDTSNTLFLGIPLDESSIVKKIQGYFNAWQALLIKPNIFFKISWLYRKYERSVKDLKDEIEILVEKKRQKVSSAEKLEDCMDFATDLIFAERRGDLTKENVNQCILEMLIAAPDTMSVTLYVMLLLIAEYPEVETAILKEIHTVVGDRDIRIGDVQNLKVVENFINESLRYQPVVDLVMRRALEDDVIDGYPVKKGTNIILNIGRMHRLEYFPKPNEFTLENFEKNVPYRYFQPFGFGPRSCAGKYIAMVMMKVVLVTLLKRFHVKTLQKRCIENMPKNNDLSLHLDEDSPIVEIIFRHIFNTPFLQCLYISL
Assay: Aromatase inhibition in the rat ovarian microsome assay
Assay type: biochemical
Details: rat ovarian microsomes; substrate (androstenedione) concentration 0.1 μM

With `c1ccc2c(c1)-c1ccccc1C2n1ccnc1` [1-(9H--fluoren-9-yl)-1H--imidazole hydrochloride] the EC50 was 0.21 µM.
